pIC50: −log10 of the molar value. Like-named read-outs stand apart in the source and are kept apart here.
How the values were obtained:
[1] = biological target: GSK3α (GST-full length GSK3α) (Homo sapiens (Human), UniProt P49840); assay: GSK3α TR-FRET kinase assay; format: biochemical
[2] = biological target: GSK3b (GST-full length GSK3b) (Homo sapiens (Human), UniProt P49841); assay: GSK3b TR-FRET kinase assay; format: biochemical
[3] = read-out: GSK3-A TR-FRET BIOCHEMICAL (TR-FRET), IC50, 1 nM GSK3α, 4 μM ATP, 30 minute preincubation (Table 16)
[4] = read-out: GSK3-B TR-FRET BIOCHEMICAL (TR-FRET), IC50, 1 nM GSK3b, 2 μM ATP, 30 minute preincubation (Table 16)
[5] = read-out: GSK3-A TR-FRET BIOCHEMICAL (TR-FRET);, 1 nM GSK3α, 4 μM ATP, 30 minute preincubation, Table 16
[6] = read-out: GSK3-B TR-FRET BIOCHEMICAL (TR-FRET);, 1 nM GSK3b, 2 μM ATP, 30 minute preincubation, Table 16
[7] = read-out: GSK3-A TR-FRET BIOCHEMICAL (TR-FRET), GMean, IC50, 1 nM GSK3α, 4 μM ATP, 30 minute preincubation, geometric mean
[8] = read-out: GSK3-B TR-FRET BIOCHEMICAL (TR-FRET), GMean, IC50, 1 nM GSK3b, 2 μM ATP, 30 minute preincubation, geometric mean
[9] = read-out: GSK3-A (TR-FRET 1 mM ATP), GMean, IC50, 1 mM ATP, geometric mean
[10] = read-out: GSK3-B (TR-FRET 1 mM ATP), GMean, IC50, 1 mM ATP, geometric mean
[11] = read-out: GSK3-A TR-FRET BIOCHEMICAL (TR-FRET), IC50, 1 nM GSK3α, 4 μM ATP, 30 minute preincubation
[12] = read-out: GSK3-B TR-FRET BIOCHEMICAL (TR-FRET), IC50, 1 nM GSK3b, 2 μM ATP, 30 minute preincubation

Sequences of proteins named here, by UniProt entry; tags and fusion partners are left off.
UniProt P49840, whole entry: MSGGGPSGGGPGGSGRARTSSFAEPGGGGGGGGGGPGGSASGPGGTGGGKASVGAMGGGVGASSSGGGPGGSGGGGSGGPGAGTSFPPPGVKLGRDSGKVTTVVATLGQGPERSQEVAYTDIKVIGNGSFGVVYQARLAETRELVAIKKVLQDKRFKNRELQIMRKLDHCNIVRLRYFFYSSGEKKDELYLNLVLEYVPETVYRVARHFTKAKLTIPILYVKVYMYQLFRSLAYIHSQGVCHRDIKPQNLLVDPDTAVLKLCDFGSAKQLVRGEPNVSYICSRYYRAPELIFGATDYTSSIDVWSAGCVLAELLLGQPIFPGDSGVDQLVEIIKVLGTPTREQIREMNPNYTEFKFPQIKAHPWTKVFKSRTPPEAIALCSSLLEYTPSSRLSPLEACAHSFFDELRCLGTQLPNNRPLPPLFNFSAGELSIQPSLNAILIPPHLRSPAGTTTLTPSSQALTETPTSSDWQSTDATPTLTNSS
UniProt P49841, whole entry: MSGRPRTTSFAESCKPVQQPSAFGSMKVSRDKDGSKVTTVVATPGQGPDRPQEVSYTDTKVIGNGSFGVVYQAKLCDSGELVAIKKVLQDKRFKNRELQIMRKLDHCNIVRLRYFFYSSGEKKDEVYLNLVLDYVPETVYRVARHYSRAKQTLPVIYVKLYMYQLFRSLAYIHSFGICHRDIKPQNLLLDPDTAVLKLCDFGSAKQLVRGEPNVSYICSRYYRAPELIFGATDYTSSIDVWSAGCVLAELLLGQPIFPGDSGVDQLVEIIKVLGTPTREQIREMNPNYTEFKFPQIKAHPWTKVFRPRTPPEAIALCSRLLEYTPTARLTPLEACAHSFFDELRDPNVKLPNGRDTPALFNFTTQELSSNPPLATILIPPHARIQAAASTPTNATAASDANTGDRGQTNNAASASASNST

Question: Which results are given for CC[C@]1(c2cccc(C(F)(F)F)c2)C2=C(CCN(c3cnsc3)C2=O)Nc2n[nH]cc21?
Answer: pIC50 [1, 3]: 6.00 to 7.00; pIC50 [2, 4]: 5.30 to 6.00

Question: What does the source list for CC[C@@]1(c2cccc(-c3ccnc(C(F)F)c3)c2)C2=C(CC(C)(C)CC2=O)Nc2n[nH]cc21?
Answer: pIC50 [1, 5]: < 5.30; pIC50 [2, 6]: < 5.30

Question: Which results are given for CC[C@]1(c2cccc(N(C)c3ncccn3)c2)C2=C(CC(C)(C)NC2=O)Nc2n[nH]c(C(F)(F)F)c21?
Answer: pIC50 [1, 7]: > 7.00; pIC50 [2, 8]: 6.00 to 7.00

Question: How did the pIC50 [1, 3] turn out when CCC1(c2cccc(-c3cc(C)ncc3C)c2)C2=C(CC(C)(C)CC2=O)Nc2n[nH]cc21 (stereo not shown) was run?
Answer: The pIC50 was greater than 7.00.

Question: And the pIC50 [2, 4]?
Answer: The pIC50 was 6.00 to 7.00.

Question: Which results are given for CC[C@@]1(c2cccc(-c3cn(C)nc3C)c2)C2=C(CC3(CCC3)NC2=O)Nc2n[nH]cc21?
Answer: pIC50 [1, 9]: > 7.00; pIC50 [1, 3]: > 7.00; pIC50 [2, 10]: 6.00 to 7.00; pIC50 [2, 4]: > 7.00

Question: CCC1(c2cccc(-c3ccnc(C(C)C)c3)c2)C2=C(CC(C)(C)CC2=O)Nc2n[nH]cc21 (stereo not shown) was tested. Which pIC50 [1, 3] did it give?
Answer: Its pIC50 is 6.00 to 7.00.

Question: What about the pIC50 [2, 4] of the same compound?
Answer: The pIC50 was 5.30 to 6.00.

Question: CC[C@@]1(c2cccc(-c3ccnn3C)c2)C2=C(C[C@]3(CCOC3)NC2=O)Nc2n[nH]cc21 was tested. Which pIC50 [1, 7] did it give?
Answer: Its pIC50 is greater than 7.00.

Question: What about the pIC50 [2, 8] of the same compound?
Answer: The pIC50 was greater than 7.00.

Question: How did the pIC50 [1, 3] turn out when CC[C@]1(c2cccc(-c3cnn(C4CC4)c3)c2)C2=C(CC(C)(C)CC2=O)Nc2n[nH]cc21 was run?
Answer: The pIC50 was 5.30 to 6.00.

Question: And the pIC50 [2, 4]?
Answer: The pIC50 was less than 5.30.

Question: What does the source list for CC[C@@]1(c2cccc(C(F)(F)F)c2)C2=C(CCN(c3cnsc3)C2=O)Nc2n[nH]cc21?
Answer: pIC50 [1, 3]: > 7.00; pIC50 [2, 4]: 6.00 to 7.00

Question: What does the source list for CC[C@]1(c2cccc(C(F)(F)F)c2)C2=C(Nc3n[nH]cc31)[C@@H](C)N(Cc1ccccc1)C2=O?
Answer: pIC50 [1, 11]: 5.30 to 6.00; pIC50 [2, 12]: < 5.30

Question: CC[C@@]1(c2cccc(Cc3ncccn3)c2)C2=C(CC(C)(C)CC2=O)Nc2n[nH]cc21 was tested. Which pIC50 [1, 5] did it give?
Answer: The pIC50 was greater than 7.00.

Question: What about the pIC50 [2, 6] of the same compound?
Answer: The pIC50 was greater than 7.00.

Question: With CC[C@]1(c2cccc(-c3ccnc(C)c3)c2)C2=C(CC(C)(C)[C@H](F)C2=O)Nc2n[nH]cc21 as the compound, how does the pIC50 [1, 9] read?
Answer: Its pIC50 is 5.30 to 6.00.

Question: What about the pIC50 [1, 5] of the same compound?
Answer: The pIC50 was greater than 7.00.

Question: And the pIC50 [2, 10]?
Answer: The pIC50 was less than 5.30.

Question: What about the pIC50 [2, 6] of the same compound?
Answer: The pIC50 was 6.00 to 7.00.

Question: Which results are given for CCC1(c2cccc(N(C)c3ncccn3)c2)C2=C(CC(C)(C)NC2=O)Nc2n[nH]c(C)c21 (stereo not shown) [Compound 949182]?
Answer: pIC50 [1, 7]: > 7.00; pIC50 [2, 8]: > 7.00

Question: CC[C@]1(c2cccc(-c3ccnc4cnccc34)c2)C2=C(CC(C)(C)NC2=O)Nc2n[nH]cc21 was tested. Which pIC50 [1, 7] did it give?
Answer: The pIC50 was 5.30 to 6.00.

Question: What about the pIC50 [2, 8] of the same compound?
Answer: Its pIC50 is less than 5.30.

Question: With CCc1cc(-c2cccc(C3(CC)C4=C(CC(C)(C)CC4=O)Nc4n[nH]cc43)c2)ccn1 (stereo not shown) as the compound, how does the pIC50 [1, 5] read?
Answer: Its pIC50 is greater than 7.00.

Question: And the pIC50 [2, 6]?
Answer: Its pIC50 is 6.00 to 7.00.

Question: How did the pIC50 [1, 11] turn out when CCC1(c2cccc(C(F)(F)F)c2)C2=C(CC(C(C)(C)C)NC2=O)Nc2n[nH]cc21 (stereo not shown) was run?
Answer: Its pIC50 is greater than 7.00.

Question: What about the pIC50 [2, 12] of the same compound?
Answer: The pIC50 was 6.00 to 7.00.

Question: CCC1(c2cccc(-c3ccncc3)c2)C2=C(CC(C)CC2=O)Nc2n[nH]cc21 (stereo not shown) was tested. Which pIC50 [1, 7] did it give?
Answer: The pIC50 was greater than 7.00.

Question: And the pIC50 [2, 8]?
Answer: The pIC50 was 6.00 to 7.00.

Question: With CCC1(c2cccc(CNC)c2)C2=C(CC(C)(C)CC2=O)Nc2n[nH]cc21 (stereo not shown) as the compound, how does the pIC50 [1, 7] read?
Answer: The pIC50 was 5.30 to 6.00.

Question: What about the pIC50 [2, 8] of the same compound?
Answer: The pIC50 was less than 5.30.

Question: How did the pIC50 [1, 7] turn out when CC[C@@]1(c2cccc(Br)c2)C2=C(C[C@@H](C(F)(F)F)CC2=O)Nc2n[nH]cc21 was run?
Answer: The pIC50 was less than 5.30.

Question: And the pIC50 [2, 8]?
Answer: The pIC50 was less than 5.30.

Question: Which results are given for CC[C@]1(c2cccc(-c3cn(C)nc3C)c2)C2=C(CC(C)(C)NC2=O)Nc2n[nH]c(C)c21?
Answer: pIC50 [1, 11]: 6.00 to 7.00; pIC50 [2, 12]: 5.30 to 6.00

Question: Which results are given for CCC1(c2cccc(-c3cc(C)ncc3C)c2)C2=C(CC(C)(C)CC2=O)Nc2n[nH]c(C(F)(F)F)c21 (stereo not shown) [Compound 947363]?
Answer: pIC50 [1, 5]: > 7.00; pIC50 [2, 6]: > 7.00

Question: With CC[C@]1(c2cccc(-c3ccnn3C)c2)C2=C(C[C@@]3(CCCOC3)NC2=O)Nc2n[nH]cc21 as the compound, how does the pIC50 [1, 9] read?
Answer: Its pIC50 is 6.00 to 7.00.

Question: What about the pIC50 [1, 7] of the same compound?
Answer: The pIC50 was greater than 7.00.

Question: And the pIC50 [2, 10]?
Answer: The pIC50 was 5.30 to 6.00.

Question: And the pIC50 [2, 8]?
Answer: Its pIC50 is 6.00 to 7.00.

Question: Which results are given for CC[C@@]1(c2cccc(S(C)(=O)=O)c2)C2=C(CC(C)(C)NC2=O)Nc2n[nH]c(C)c21?
Answer: pIC50 [1, 7]: 5.30 to 6.00; pIC50 [2, 8]: < 5.30

Question: How did the pIC50 [1, 7] turn out when CC[C@]1(c2cccc(Br)c2)C2=C(C[C@H](C(F)(F)F)CC2=O)Nc2n[nH]cc21 was run?
Answer: Its pIC50 is greater than 7.00.

Question: And the pIC50 [2, 8]?
Answer: Its pIC50 is 6.00 to 7.00.

Question: How did the pIC50 [1, 7] turn out when CC[C@@]1(c2cccc(-c3ccncc3C)c2)C2=C(C[C@@]3(CCOC3)NC2=O)Nc2n[nH]cc21 was run?
Answer: Its pIC50 is greater than 7.00.

Question: What about the pIC50 [2, 8] of the same compound?
Answer: Its pIC50 is greater than 7.00.

Question: How did the pIC50 [1, 7] turn out when CC[C@]1(c2cccc(-c3ccnc(C)c3C)c2)C2=C(CC(C)(C)NC2=O)Nc2n[nH]c(C)c21 was run?
Answer: The pIC50 was 5.30 to 6.00.

Question: What about the pIC50 [2, 8] of the same compound?
Answer: The pIC50 was less than 5.30.

Question: Which results are given for CC[C@]1(c2cccc(N(C)c3ncccn3)c2)C2=C(CC(C)(C)NC2=O)Nc2n[nH]c(F)c21?
Answer: pIC50 [1, 3]: 6.00 to 7.00; pIC50 [2, 4]: < 5.30

Question: With CC[C@]1(c2cccc(-c3ccnn3C)c2)C2=C(C[C@]3(CCOC3)NC2=O)Nc2n[nH]cc21 as the compound, how does the pIC50 [1, 7] read?
Answer: The pIC50 was greater than 7.00.

Question: And the pIC50 [2, 8]?
Answer: The pIC50 was greater than 7.00.

Question: Which results are given for COc1ccc(S(=O)(=O)N2CCC[C@]3(CC2)C2=C(CC(C)(C)CC2=O)Nc2n[nH]cc23)cc1?
Answer: pIC50 [1, 5]: > 7.00; pIC50 [2, 6]: 6.00 to 7.00

From patent US20250313563A1, “GLYCOGEN SYNTHASE KINASE 3 INHIBITORS AND USES THEREOF” (The Broad Institute, Inc., priority 2022, published 2025)
